scFv variants of Ab-95 (light chain) against a SARS-CoV-2 spike peptide

The measurements come from Engelhart et al. 2022 (doi:10.1038/s41597-022-01779-4) through the FLAb antibody collection.

All variants were tested on one target, the spike HR2 peptide PDVDLGDISGINAS (SARS-CoV-2).

Each scFv is VH, a 15-residue (Gly4Ser)3 linker, VL, as in the parent Ab-95, and differs from it in the CDRs of the light chain only.
VH: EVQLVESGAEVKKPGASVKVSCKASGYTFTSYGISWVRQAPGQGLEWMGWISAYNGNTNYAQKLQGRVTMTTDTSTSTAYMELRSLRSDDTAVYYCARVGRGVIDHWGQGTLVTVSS
VL: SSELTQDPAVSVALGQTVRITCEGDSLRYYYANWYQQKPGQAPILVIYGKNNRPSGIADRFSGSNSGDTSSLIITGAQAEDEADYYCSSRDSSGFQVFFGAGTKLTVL

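In library AAYL52, one, two or three CDR residues were substituted; doubles and triples were drawn at random. AlphaSeq pools MATa yeast showing the antibodies with MATalpha yeast showing the peptide. The frequency of each diploid, read from paired DNA barcodes, reflects how well the two displayed proteins bind. A regression on co-assayed BCL2-family reference pairs converts the normalised counts of each replicate to an apparent Kd. There are three technical replicates.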

The parent's light chain CDRs are EGDSLRYYYAN, GKNNRPS, SSRDSSGFQVF; each variant's own CDRs replace them letter for letter.
Values are log10 of the apparent Kd in nM; lower means stronger binding.
A mean of the replicates is given; it leaves out those without a signal.
Where no diploid with the target was found in any replicate, the entry reads "nd": below detection, most likely a poor binder, though not proof of it.
Three control strains display no target. For library AAYL52, 28% of the pairings with them gave a signal, with a median of 3.91 and one signal in twenty below 2.90, so weak values seen in few replicates may be background. For each scFv, signals with the empty controls are counted beside the result.

CDR-L1	CDR-L2	CDR-L3	mean, log10 nM	replicates with signal	empty controls
EGDGLRYYYAN	QANNRPS	SSRDSSGFQVF	3.88	3/3	4/9
EGWSLRYYYAN	GKNNRPS	SSRTSSHFQVF	3.99	1/3	3/9
EQDSLRYYYAN	GKNNRPS	SSRDESGFDVF	nd	0/3	2/9
EGDSLRYYEAK	GKNNRPS	SSRDSSGFQVF	3.83	3/3	1/9
EGDSLRYYYAN	GKNNRPS	SSHDSSGFQVI	2.51	3/3	2/9
EGDSLRYYYWI	WKNNRPS	SSRDSSGFQVF	4.06	3/3	2/9
EGDSLRYYYAN	GKNNRPS	SERDSSKFEVF	4.04	2/3	2/9
EGDSLRPYYAN	GKNFRPS	SSRDSSGKQVF	3.02	3/3	0/9
EGDSLRYYYAN	GQNSRPS	SSRDSMGFQVF	4.05	3/3	2/9
IGDSLRYYYAN	GKNNRPS	SHRDSSGRQVF	4.28	1/3	3/9
EGDSLRVYYAN	GKNFRPL	SSRDSSGFQVF	5.48	1/3	1/9
EGDSLRYYMAN	GKANRPS	SSRDSSGTQVF	2.48	3/3	5/9
EGDSLRYIYAN	NKPNRPS	SSRDSSGFQVF	nd	0/3	2/9
EGDSLRLYYAA	GKNNRPS	SSRDSSPFQVF	4.44	2/3	4/9
EGDALRYTYAN	GKNNRPS	SSRDSSGFQDF	1.84	3/3	4/9
EGDSLRYPYAN	GKNHYPS	SSRDSSGFQVF	nd	0/3	0/9
EGDSLRYYYAN	GKNNRPS	QSRDSSYKQVF	2.94	1/3	0/9
EGGSLRYYYAN	GKNNRPS	SSRGSAGFQVF	3.01	3/3	2/9
EGDSLRYYYAN	GYNNYPS	SSFDSSGFQVF	nd	0/3	3/9
EQMSLRYVYAN	GKNNRPS	SSRDSSGFQVF	3.39	1/3	1/9
NGDSLRYYYAN	GKNNRPS	SSRGSSGNQVF	2.40	3/3	3/9
EGPSLRYYYVN	GKNNRPS	SSTDSSGFQVF	3.55	3/3	1/9
FVDSLRYYYAN	GKNNRPS	SSRDSSGFQVF	3.45	3/3	1/9
EGRSLRYYGAN	GKDNRPS	SSRDSSGFQVF	1.60	3/3	5/9
EGDSLRYYYTN	GKNNRPS	NSRDSSGFQYF	3.29	2/3	5/9
EGDSLRYYYAN	GKNFRPS	SSRGSFGFQVF	1.86	3/3	3/9
EEDSLRYYYAN	GKNNRPS	SSRDSSPFFVF	3.98	2/3	2/9
EGDSLRYYYAL	GKNNRPS	GSRSSSGFQVF	2.64	3/3	3/9
ENDSLRYYYWN	GKNNCPS	SSRDSSGFQVF	5.41	1/3	3/9
EGDSGRYYTAN	GKNNRPS	SSRDSSGFLVF	3.69	2/3	3/9
EGDSLRYYYAN	GYNNRPS	SSTDSSGRQVF	4.28	1/3	0/9
EGDSLRYYYQN	GKNNGPS	SSRDRSGFQVF	2.61	3/3	6/9
EGDSLDYYYAN	GKNFRPS	MSRDSSGFQVF	2.63	3/3	2/9
EGYSLRYYYAN	GKDNRPS	SSRNSSGFQVF	3.27	2/3	2/9
EGDSLRYYYAN	GKNNAPS	SSRDSFGFQVY	3.32	2/3	2/9
RGDLLRYYYAI	GKNNRPS	SSRDSSGFQVF	3.32	3/3	3/9
ETDSLRYYYAN	GKNNRPS	SSRDSSGPQVF	3.85	2/3	1/9
EGDSLRYYYAN	GKNARPS	SSRDSSGFGVF	2.86	2/3	4/9
EGDKLRYYYAN	GKNNRPS	SFRDSSGFQVA	5.09	1/3	6/9
EGDSLDYYVAN	GKNNRAS	SSRDSSGFQVF	3.53	3/3	4/9
EGMSLRYYYAN	GKNNRPS	SSRDSQGFQVF	2.82	3/3	2/9
EGNSWRYYYAN	GKNNRPS	SSRDSHGFQVF	3.87	1/3	3/9
EGDSLQYYYAM	GKNNRPS	SSRDSSGFQVT	5.03	2/3	4/9
EGNSLRYYYAW	GKNNRPS	SSRDSSGFQVF	4.66	2/3	0/9
EGDSLRMYYAN	GKNNRPV	SSRDTSGFQVF	3.34	3/3	0/9
EGDSLKYYYAN	GKNNGPS	SSRDNSGFQVF	2.38	3/3	1/9
EGDSLRYYYAN	GKNNRPV	SSIDSSGFQPF	3.17	3/3	3/9

5 of these entries, quoted again:

CDR-L1,CDR-L2,CDR-L3,"mean, log10 nM",replicates with signal,empty controls
EGDSLDYYYAN,GKNFRPS,MSRDSSGFQVF,2.63,3/3,2/9
EGDSLRVYYAN,GKNFRPL,SSRDSSGFQVF,5.48,1/3,1/9
EGDSLRYYYAN,GKNNRPV,SSIDSSGFQPF,3.17,3/3,3/9
EGDSLRYYYAN,GKNNRPS,SERDSSKFEVF,4.04,2/3,2/9
EGDSLRYYYAL,GKNNRPS,GSRSSSGFQVF,2.64,3/3,3/9